# This is a sample that favours compounds with a hit; in the whole collection about 1.3% have one here.
# ERG Ets-DNA blk: blocks human ERG Ets domain binding to DNA. fluorescence polarization, His-ERG Ets domain / labelled DNA. AID 624246. actives 0.028% (n = 370,000). P11308. Potency, µM (top dose mostly 76.9 µM), for the others: at the top dose FP activity, negative = inhibition, actives largely listed as inhibitors; active = well fitted inhibition curve with a large enough effect in the polarisation, with a control signal flat; inconclusive = small, poorly fitted or top-dose-only effect, or effect the other way, or a change in a side signal; inactive = no such curve, though single readings can be large or run the other way; the % refers to the polarisation;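 note: polarization taken with two DNA probes labelled with fluorescein and Texas red; potency is the fitted concentration of half-maximal effect; % of control where 0% means no effect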
#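 His-tagged ERG Ets domain (1 uM in the protein solution; 300mM KCl, 50mM Tris-HCl, 1mM EDTA, 1mM DTT, pH 7.5) received compound, then a probe mix of 5 nM fluorescein-DNA and 100nM Texas-615-DNA. Fluorescence polarization was read for both dyes.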
# ALOX12 inh: inhibitors of human 12S-lipoxygenase ALOX12; P18054; purified 12hLO, xylenol orange hydroperoxide absorbance; Potency, µM (titrated, usually from 108 µM), without a hit: at the highest dose activity change, negative = inhibition, most hits filed as inhibitors; actives 1.1% (n = 580,000); note: potency is the fitted concentration of half-maximal effect; % is set by controls: 0 for no effect and ±100 for the full control effect
#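 Purified human 12hLO at 150 nM in 25 mM Hepes, 0.01% Triton X-100, pH 7.0, preincubated 15 min at room temperature with compound. Reaction started with 40 uM arachidonic acid, 30 min at room temperature. Hydroperoxide measured by Fe-xylenol orange, 573/405 nm absorbance ratio.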
# PTHR1 agonist: PTHR1 (human) receptor agonism; Potency, µM (titrated, usually from 115 µM), for inactives: at the top dose activation, usual class: activators; AID 743266; Q03431; HEK293 GP2 PTHR1 cells, GloSensor cAMP luminescence, 1 h; actives 0.075% (n = 410,000); note: potency is the fitted concentration of half-maximal effect; nearly all actives have a fitted effect of over 55% in size
#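 HEK-293-derived GP2 cells expressing PTHR1 and a GloSensor cAMP reporter, 3,000/well, plated overnight, given luciferin plus IBMX (each 0.5 mM as added) for 1 h at 37 °C, then compound for 1 h at 37 °C. Luminescence was read after 15 min at room temperature.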
# miR-21 reporter: raises the signal of a miR-21 reporter | HeLa miR-21 FLuc reporter, luciferase, 48 h | Potency, µM (doses to about 38.3 µM), for the others: at the highest dose reporter change, positive = more light | 340,000 tested, under 10 active | AID 2288; active = well fitted rising curve with a large enough effect; inconclusive = small, poorly fitted or top-dose-only effect; inactive = no such curve, though single readings can be large or run the other way;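 also: % of control where 0% means no effect; miR-21 action dims this reporter so a rising signal means less miR-21 action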
#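 Compounds were titrated across several concentrations (up to approximately 40 uM) and incubated 48 hours with HeLa miR-21-FLuc reporter cells (miR-21 target sequence downstream of FLuc, endogenous miR-21). Readout was firefly luciferase luminescence after lytic detection reagent.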
# PINK1 expr mod: changes PINK1 expression; AID 624263; Potency, µM (series often up to 76.6 µM), inactives show at the top dose activation (PINK1 increase), actives largely listed as activators; actives 0.2% (n = 410,000); PINK1 immunofluorescence, high-content cytometry, 24 h; active = well fitted activation curve with a large enough effect; inconclusive = small, poorly fitted or top-dose-only effect; cell line not stated here; note: potency is the fitted concentration of half-maximal effect; % of control where 0% means no effect; nearly all actives have a fitted effect of over 65% in size
#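 A stable cell line was treated with compounds at 5 concentrations for 24 hours, with CCCP as control. PINK1 levels and mitochondrial localization were measured by immunofluorescence with mitochondrial, cell and nuclear markers after fixation, read by laser-scanning cytometry.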
# Giardia kill: kills Giardia lamblia | activity change, % at 7.66 µM, hits read low | AID 540267 | Giardia lamblia trophozoite viability | actives 0.15% (n = 340,000); in the data active = activity change below about -80%; inconclusive = between about -30% and that limit;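 note: parasites exposed to compound for two days anaerobically before the ATP read; % is set by controls: 0 for no effect and ±100 for the full control effect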
#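 Media and compound were dispensed first, then trophozoites at 100 cells/well; plates sat 48 hrs at 37 deg C without oxygen before ATP luminescence reagent was added and read after 15-30 min at room temperature.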
# Active calls of the source: *; i = inactive; u = inconclusive; x = not tested or not shown; ! = repeats disagree; [ ] = dose if it differs, or a comment. Unless noted, calls come from the whole dose curve; as a rule, active = well fitted curve in the direction sought with a large enough effect; inconclusive = small, poorly fitted or top-dose-only effect, or another doubt; inactive = no such curve, though single readings can be large; an effect the other way counts as inactive or inconclusive.
# Letter code: A = ERG Ets-DNA blk; B = ALOX12 inh; C = PTHR1 agonist; D = miR-21 reporter; E = PINK1 expr mod; F = Giardia kill
compound: N#Cc1c(N)n[nH]c1-c1cc2c([nH]1)CCCC2
  A = 7% | B = -22% | C = i | D = -34% | E = -4% | F = -8
compound: N#Cc1cc2c([nH]c1=S)CCCCCC2
  A = x | B = 16µM* | C = i | D = -4% | E = x | F = 1
compound: Cc1c(Cl)cccc1NC(=S)NCCc1ccc(Cl)cc1
  A = 4% | B = 25µM* | C = -27% | D = 4% | E = u | F = 12
compound: Fc1ccccc1NC(=S)NCCc1ccc(Cl)cc1
  A = 5% | B = 40µM* | C = -21% | D = -38% | E = 4% | F = -10
compound: CCOc1ccc(C(=O)NC2CCN(c3cc(-c4ccc(F)cc4)[nH]n3)CC2)cc1
  A = x | B = 67% | C = x | D = x | E = x | F = x
compound: CC1(C)C2(Cl)C(Cl)C(Cl)C(Cl)(C(Cl)Cl)C1(Cl)C2Cl (stereo not given)
  A = x | B = x | C = x | D = x | E = 1% | F = x
compound: CCOC(=O)Cc1nnc2c(Nc3ccc(Cl)cc3)nc3nonc3n12
  A = 1% | B = u | C = -40% | D = 28% | E = 45µM* | F = 12
compound: CCOCCSc1nnc(-c2nn(Cc3ccccc3)c(=O)c3ccccc23)o1
  A = x | B = 28µM* | C = x | D = x | E = x | F = x
compound: CC(C)Oc1ccc(Cc2cnc(=S)[nH]c2N)cc1
  A = 9% | B = 35µM* | C = -1% | D = -6% | E = 1% | F = -18
compound: Oc1ccccc1C=NNC(=S)NC1CC2C=CC1C2 (stereo not given)
  A = x | B = 45µM* | C = -31% | D = x | E = 23% | F = x
compound: CCn1c(C(=O)O)c(CC(=O)Nc2cccc(C(F)(F)F)c2)c2ccccc21
  A = 13% | B = u | C = -26% | D = -13% | E = 0% | F = -8
compound: Fc1ccc(F)c(C2=NNC(=Nc3ccccc3F)SC2)c1
  A = 3% | B = -28% | C = -17% | D = 16% | E = 35µM* | F = 7
compound: Fc1ccc(N=C2NN=C(c3cc(F)ccc3F)CS2)cc1
  A = -10% | B = u | C = i | D = -3% | E = u | F = 0
compound: CCOc1ccccc1C(=O)NC1CCN(CC(=O)Nc2cc(OC)ccc2OC)CC1
  A = 3% | B = 21% | C = i | D = -4% | E = -1% | F = -22
compound: CCN(CC)Cc1ccc2cc(COC(=O)Nc3ccc(C(=O)NO)cc3)ccc2c1
  A = x | B = 15µM* | C = x | D = x | E = x | F = x
compound: CN1CCN(c2nc3c(c(=O)[nH]2)CCN(Cc2ccc(F)c(Cl)c2)CC3)CC1
  A = x | B = -16% | C = x | D = x | E = x | F = x
compound: COc1ccc(-c2coc(CCC(=O)N3CCN(c4cc(C)ccc4C)CC3)n2)cc1
  A = 6% | B = 20µM* | C = i | D = x | E = -1% | F = 7
compound: COc1ccc(-c2noc(CCCC(=O)N3CCN(c4cc(C)ccc4C)CC3)n2)cc1
  A = -9% | B = u | C = -92% | D = x | E = 0% | F = 47
compound: CC12CCCC(O)(C1)C1CC(C)(C)C1CC2 (stereo not given)
  A = x | B = x | C = x | D = x | E = 3% | F = x
compound: NC(=NCCCCCCN=C(N)/N=C(\N)Nc1ccc(Cl)cc1)/N=C(\N)Nc1ccc(Cl)cc1
  A = u | B = 32µM*! | C = -22% | D = 26% | E = u | F = 8
compound: CC(C)N=C(N)/N=C(\N)Nc1ccc(Cl)cc1
  A = x | B = -7%[22.9 µM] | C = x | D = x | E = x | F = x
compound: Cc1ccc(CCNC(=O)c2ccc(NC(=O)N3CC(C)Sc4ccccc43)cc2)cc1 (stereo not given)
  A = -4% | B = -2% | C = i | D = -2% | E = -1% | F = x
compound: CCCNC(=S)NCCN1CCCCC1
  A = 1% | B = 0.63µM* | C = i | D = 3% | E = -2% | F = 7
compound: N#C/C(=C\c1ccc([N+](=O)[O-])cc1)c1ccccn1
  A = 9% | B = -14% | C = -35% | D = -36% | E = 0% | F = 2
compound: CN(C)c1ccc(/C=C(\C#N)c2ccccn2)cc1
  A = 0% | B = u | C = -94% | D = u | E = 5% | F = -98*
compound: COC(=O)c1sc(NC(=O)c2ccc([N+](=O)[O-])o2)c(C#N)c1C
  A = 3% | B = 0% | C = -41% | D = 17% | E = u | F = -93*
compound: CCOC(=O)c1sc(NC(=O)c2ccco2)c(C#N)c1C
  A = 5% | B = -19% | C = -4% | D = -6% | E = 5% | F = 1
compound: CC(=O)N1CCc2c(sc(NC(=O)c3ccc([N+](=O)[O-])o3)c2C#N)C1
  A = 1% | B = u | C = -49% | D = -23% | E = -1% | F = -88*
compound: COc1ccc(C(=O)Nc2sc3c(c2C#N)CCN(C(C)=O)C3)cc1
  A = 8% | B = -7% | C = i | D = 22% | E = 10% | F = -3
compound: CCC(=O)NC(c1cccs1)c1cc([N+](=O)[O-])c2cccnc2c1O (stereo not given)
  A = 2% | B = 3.5µM* | C = i | D = 0% | E = 5% | F = 10

# Continued; it opens with the 4 that closed the last part.
# Letter code: A = ERG Ets-DNA blk; B = ALOX12 inh; C = PTHR1 agonist; D = miR-21 reporter; E = PINK1 expr mod; F = Giardia kill
compound: CCOC(=O)c1sc(NC(=O)c2ccco2)c(C#N)c1C
  A = 5% | B = -19% | C = -4% | D = -6% | E = 5% | F = 1
compound: CC(=O)N1CCc2c(sc(NC(=O)c3ccc([N+](=O)[O-])o3)c2C#N)C1
  A = 1% | B = u | C = -49% | D = -23% | E = -1% | F = -88*
compound: COc1ccc(C(=O)Nc2sc3c(c2C#N)CCN(C(C)=O)C3)cc1
  A = 8% | B = -7% | C = i | D = 22% | E = 10% | F = -3
compound: CCC(=O)NC(c1cccs1)c1cc([N+](=O)[O-])c2cccnc2c1O (stereo not given)
  A = 2% | B = 3.5µM* | C = i | D = 0% | E = 5% | F = 10
compound: CC(=O)NC(c1cccs1)c1cc([N+](=O)[O-])c2cccnc2c1O (stereo not given)
  A = -5% | B = u | C = i | D = u | E = 19% | F = 3
compound: CCCC(=O)NC(c1cccs1)c1cc([N+](=O)[O-])c2cccnc2c1O (stereo not given)
  A = -8% | B = 18µM* | C = i | D = -1% | E = 0% | F = 16
compound: CC1=C(C(=O)OC(C)(C)C)C(c2ccccc2F)C(C#N)=C(N)O1 (stereo not given)
  A = x | B = -52% | C = x | D = x | E = x | F = x
compound: COC(=O)[C@@H]1CN(C(=O)c2ccc(N(C)C)cc2)CCN1C(C)=O
  A = x | B = 14%[176 µM] | C = x | D = x | E = x | F = x
compound: COc1ccc(/C(C)=N\NC(=O)CSc2nnc(C)s2)cc1
  A = 4% | B = 18% | C = -42% | D = -16% | E = 1% | F = 2
compound: Cc1ccc(S(=O)(=O)c2nc(-c3ccco3)oc2N(C)C)cc1
  A = x | B = 43% | C = x | D = x | E = x | F = x
compound: CC1C=CCC2C(=O)N(c3cccc(C(=O)NCCc4ccccc4)c3)C(=O)C12 (stereo not given)
  A = 1% | B = u | C = i | D = -20% | E = 0% | F = 19
compound: CC1C=CCC2C(=O)N(c3cccc(C(=O)NCc4ccccc4)c3)C(=O)C12 (stereo not given)
  A = 5% | B = 32µM* | C = i | D = -8% | E = 0% | F = 2
compound: Cc1ccc2c3cc(-c4ccccc4)cn3ccn12
  A = x | B = 0.79µM* | C = x | D = x | E = x | F = x
compound: CCn1cc(-c2ccccc2)cc1C(=O)O
  A = x | B = 13% | C = x | D = x | E = x | F = x
compound: C/C(=N/N=C(\C)c1ccccc1O)c1ccccc1O
  A = -2% | B = -6% | C = i | D = -22% | E = 32µM* | F = 8
compound: Nc1cccc(C(=O)Nc2ccc(N)cc2Cl)c1
  A = 4% | B = 17% | C = -5%[57.5 µM] | D = -13% | E = 8%[38.3 µM] | F = 0
compound: S=c1[nH]nc(COc2ccccc2)n1/N=C/c1cccc(Br)c1
  A = -6% | B = 32µM* | C = -10% | D = -12% | E = 9% | F = 5
compound: S=c1[nH]nc(COc2ccccc2)n1/N=C/c1ccc(Br)cc1
  A = 0% | B = 0% | C = i | D = 2% | E = 2% | F = 7
compound: COCCn1c(=O)c(-c2cccc(C#N)c2)nc2cnc(Oc3ccccc3)nc21
  A = x | B = 0% | C = x | D = x | E = 0% | F = x
compound: COc1ccc(Nc2ncc3nc(-c4cccs4)c(=O)n(Cc4cccc(OC)c4)c3n2)cc1
  A = x | B = u | C = x | D = x | E = 2.5µM* | F = x
compound: COc1cccc(Nc2ncc3nc(CCc4ccccc4)c(=O)n(Cc4cccs4)c3n2)c1
  A = x | B = u | C = x | D = x | E = 28µM* | F = x
compound: COCCn1c(=O)c(-c2cccc(C#N)c2)nc2cnc(Nc3ccccc3)nc21
  A = x | B = u | C = x | D = x | E = 25µM* | F = x
compound: COc1cccc(Cn2c(=O)c(-c3cccs3)nc3cnc(Nc4cccc(OC)c4)nc32)c1
  A = x | B = 46% | C = x | D = x | E = 8% | F = x
